Molecular target: D(2) dopamine receptor (Homo sapiens, UniProt P14416)
Experiment: Displacement of [3H]raclopride from human Dopamine receptor D2A

Sequences of proteins named here, by UniProt entry; tags and fusion partners are left off.
UniProt P14416, whole entry: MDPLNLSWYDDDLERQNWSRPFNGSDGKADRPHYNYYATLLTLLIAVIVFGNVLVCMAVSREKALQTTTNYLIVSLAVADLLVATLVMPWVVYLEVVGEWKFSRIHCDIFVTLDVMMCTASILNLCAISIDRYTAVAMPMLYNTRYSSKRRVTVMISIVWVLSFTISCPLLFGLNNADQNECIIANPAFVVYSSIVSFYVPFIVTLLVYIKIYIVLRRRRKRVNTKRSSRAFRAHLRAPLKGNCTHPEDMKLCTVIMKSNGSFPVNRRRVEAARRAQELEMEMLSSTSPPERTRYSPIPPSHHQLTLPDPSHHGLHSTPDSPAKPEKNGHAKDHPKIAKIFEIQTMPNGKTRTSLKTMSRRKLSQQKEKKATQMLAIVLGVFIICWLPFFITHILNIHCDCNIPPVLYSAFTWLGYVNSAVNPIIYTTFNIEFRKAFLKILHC

Compound: CCCN1CCc2cccc3c2[C@H]1Cc1cccc(O)c1-3
- Ki: 12.7 nM
